Source: PMC11973759 (Journal for Immunotherapy of Cancer, 2025)

Experiments:
[1] = tested on: LLC lung tumor; assay: Subcutaneous NSCLC mouse model; assay type: in vivo
[2] = tested on: CT26-luc colorectal tumor; assay: Orthotopic CRC model; assay type: in vivo, mouse; conditions: s.c. every 3 days, bioluminescence
[3] = tested on: PANC1 tumor; assay: Humanized pancreatic cancer mouse model; assay type: in vivo; conditions: humanized mice, PANC1 s.c., TB511 twice a week, n=4 per group
[4] = tested on: CT26 Luc colorectal tumor; assay: Orthotopic CRC mouse model; assay type: in vivo
[5] = tested on: M2-TAMs; assay: Live-cell imaging of caspase 3/7 activation; assay type: cell-based, human; conditions: TB511 1 µM
[6] = tested on: macrophages, T cells, NK cells, dendritic cells and neutrophils from spleen; assay: Annexin V assay in spleen immune cells; assay type: cell-based; conditions: mouse spleen CD45+ cells, TB511 1 µM 30 min 37 °C
[7] = tested on: CD18/sgRNA-transfected M2-differentiated THP-1 cells; assay: MTS viability of mock- or CD18/sgRNA-transfected M2 macrophages; assay type: cell-based, human; conditions: TB511 3 µM 24 h
[8] = tested on: A549 tumor; assay: Humanized NSCLC mouse model; assay type: in vivo; conditions: humanized mice, A549 s.c., TB511 s.c. every 3 days
[9] = tested on: M0 or M1 macrophages; assay: Live-cell imaging of caspase 3/7 activation; assay type: cell-based, human; conditions: TB511 1 µM
[10] = tested on: A549 tumor; assay: A549 tumor in immunodeficient mice; assay type: in vivo, mouse; conditions: immunodeficient SID mice, A549, n=6
[11] = tested on: LLC lung tumor; assay: Subcutaneous lung cancer model; assay type: in vivo, mouse; conditions: LLC s.c., TB511 s.c. twice per week, n=10 WT, n=4 CD18KO
[12] = CCK-8 cell viability of M2 macrophages; assay type: cell-based, human
[13] = tested on: cell clusters in PANC1 tumor tissue; assay: Spatial transcriptomics; assay type: in vivo, humanized mice; conditions: UMAP clusters, PBS group 18%
[14] = tested on: bone marrow-derived macrophages; assay: MTS viability of bone marrow-derived macrophages from WT and CD18-KO mice; assay type: cell-based, mouse; conditions: TB511 2.5 µM 24 h
[15] = tested on: 4T1 tumor; assay: Subcutaneous TNBC mouse model; assay type: in vivo; conditions: 4T1 s.c., 200 nmol/kg s.c. every 3 days, TB511 n=5

SMILES: CC[C@H](C)[C@H](NC(=O)[C@H](CC(C)C)NC(=O)[C@H](C)NC(=O)[C@@H]1CCCN1C(=O)[C@H](CC(C)C)NC(=O)CNC(=O)[C@@H](NC(=O)[C@@H](NC(=O)[C@H](CC(C)C)NC(=O)[C@@H](NC(=O)COCCOCCN)C(C)C)[C@@H](C)O)[C@@H](C)O)C(=O)N[C@@H](CO)C(=O)N[C@@H](Cc1c[nH]c2ccccc12)C(=O)N[C@H](C(=O)N[C@@H](CCCCN)C(=O)N[C@@H](CCCNC(=N)N)C(=O)N[C@@H](CCCCN)C(=O)N[C@@H](CCCNC(=N)N)C(=O)N[C@@H](CCC(N)=O)C(=O)N[C@@H](CCC(N)=O)C(=O)NCC(=O)NCC(=O)NCC(=O)NCC(=O)N[C@@H](CO)C(=O)N[C@H](CCCCN)C(=O)N[C@H](CC(C)C)C(=O)N[C@H](C)C(=O)N[C@H](CCCCN)C(=O)N[C@H](CC(C)C)C(=O)N[C@H](C)C(=O)N[C@H](CCCCN)C(=O)N[C@H](CCCCN)C(=O)N[C@H](CC(C)C)C(=O)N[C@H](C)C(=O)N[C@H](CCCCN)C(=O)N[C@H](CC(C)C)C(=O)N[C@H](C)C(=O)N[C@H](CCCCN)C(=O)O)[C@@H](C)CC [TB511]
- Tumor growth ([1]; LLC s.c., 200 nmol/kg s.c. every 3 days, caliper, n=12): significantly suppressed
- Number of M1 and M2 macrophages in tumor ([1]; lung cancer tissue, flow cytometry, n=5): significantly increased the number of M1 macrophages while reducing M2 macrophages
- Tumor size, CD18-KO mice ([2]; n=3): these effects were not observed in CD18-KO mice
- Tumor size, WT mice ([2]; n=5): significantly reduced the tumor size in WT mice
- Tumor growth [3]: significantly inhibited tumor growth
- Number of CD8+ T and Granzyme B+ cells in tumor ([4]; CRC tissues, IHC, n=7): significantly increased following TB511 treatment
- Number of M2-TAMs (CD206+F4/80+CD45+ cells) in tumor ([4]; CRC tumor tissue, flow cytometry, n=4): significantly reduced in the TB511 group compared with the control group
- Tumor growth ([4]; orthotopic CT26 Luc, 200 nmol/kg s.c. every 3 days, in vivo imaging, n=12): markedly suppressed tumor growth
- Time at which activation of caspase 3/7 was detected [5]: ≤ 5 min
- Time of peak caspase 3/7 activation after incubation [5]: 15 min
- Apoptosis (Annexin V) in immune cell types [6]: induced more apoptosis in macrophages than in other immune cells
- Cytotoxicity in CD18/sgRNA-transfected versus mock-transfected cells [7]: significantly diminished in CD18/sgRNA-transfected cells compared with mock-transfected cells
- Anticancer effect (tumor growth) [8]: profound anticancer effects were observed
- Caspase 3/7 activation [9]: not observed in M0 or M1 macrophages
- Antitumor effect (tumor volume) [10]: completely disappeared
- Antitumoral effects (tumor volume), WT versus CD18-KO mice [11]: only evident in the WT mice and not in CD18-KO mice
- IC50 [12]: 4.92 µM
- Proportion of immune cells in tumor tissue [13]: 23%
- Cytotoxicity in BMDMs from CD18-KO mice [14]: diminished in bone marrow-derived macrophages obtained from CD18-KO mice
- Tumor growth [15]: suppressed tumor growth
